According to publication PMC2671235:

Molecular target: Annexin I peptide
Test: ITC

“S100A6 (from UniProt P06703 1-90) (natural protein)” showed a stoichiometry N (binding sites per dimer) of 2.
